The source made the active and inactive calls.
Columns and labels:
[1] = target: Muscarinic acetylcholine receptor M3 (Homo sapiens) (UniProt P20309); assay: Agonist activity at muscarinic M3 receptor (unknown origin) at 1 uM; format: functional
Outline: (§1)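 Each receptor was expressed separately in its own cell line, and compounds were added at 1 μM. Cells were seeded on biosensor plates and grown overnight to a confluent monolayer. They were then washed, kept in Hank's balanced salt solution, and equilibrated 1 h in the reader. After a 2 min baseline, the label-free dynamic mass redistribution (DMR) response was recorded immediately after compound addition.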

Protein sequences, listed by entry. Tags and fused reporters are not part of them.
UniProt P20309, whole entry, looked up: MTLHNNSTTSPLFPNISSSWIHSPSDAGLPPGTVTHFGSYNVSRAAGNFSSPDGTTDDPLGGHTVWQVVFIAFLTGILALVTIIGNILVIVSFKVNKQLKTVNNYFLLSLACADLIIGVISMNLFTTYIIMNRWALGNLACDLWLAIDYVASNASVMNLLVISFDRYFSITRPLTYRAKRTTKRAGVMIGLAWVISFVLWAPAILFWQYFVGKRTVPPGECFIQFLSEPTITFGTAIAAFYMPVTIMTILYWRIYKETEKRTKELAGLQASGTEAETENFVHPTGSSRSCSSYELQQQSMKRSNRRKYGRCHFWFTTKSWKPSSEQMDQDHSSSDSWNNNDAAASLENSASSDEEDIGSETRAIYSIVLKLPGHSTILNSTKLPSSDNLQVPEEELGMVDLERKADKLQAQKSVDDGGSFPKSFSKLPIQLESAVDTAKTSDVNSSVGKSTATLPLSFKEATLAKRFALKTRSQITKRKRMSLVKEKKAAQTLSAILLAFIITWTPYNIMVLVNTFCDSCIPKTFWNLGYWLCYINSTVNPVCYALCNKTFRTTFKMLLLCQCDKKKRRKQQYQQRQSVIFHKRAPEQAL
UniProt P14416, whole entry: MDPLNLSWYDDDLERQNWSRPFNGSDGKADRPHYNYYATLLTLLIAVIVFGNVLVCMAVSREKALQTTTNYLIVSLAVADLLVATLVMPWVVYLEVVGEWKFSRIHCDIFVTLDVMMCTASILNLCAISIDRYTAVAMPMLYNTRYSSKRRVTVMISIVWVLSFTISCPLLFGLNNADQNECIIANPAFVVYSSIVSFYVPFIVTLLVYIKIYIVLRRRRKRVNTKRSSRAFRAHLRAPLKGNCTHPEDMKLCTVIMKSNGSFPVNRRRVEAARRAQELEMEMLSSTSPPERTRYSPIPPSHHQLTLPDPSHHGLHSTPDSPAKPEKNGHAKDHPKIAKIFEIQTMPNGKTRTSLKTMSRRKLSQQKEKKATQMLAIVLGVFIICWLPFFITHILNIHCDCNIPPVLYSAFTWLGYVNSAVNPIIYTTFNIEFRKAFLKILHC
UniProt P35372, whole entry: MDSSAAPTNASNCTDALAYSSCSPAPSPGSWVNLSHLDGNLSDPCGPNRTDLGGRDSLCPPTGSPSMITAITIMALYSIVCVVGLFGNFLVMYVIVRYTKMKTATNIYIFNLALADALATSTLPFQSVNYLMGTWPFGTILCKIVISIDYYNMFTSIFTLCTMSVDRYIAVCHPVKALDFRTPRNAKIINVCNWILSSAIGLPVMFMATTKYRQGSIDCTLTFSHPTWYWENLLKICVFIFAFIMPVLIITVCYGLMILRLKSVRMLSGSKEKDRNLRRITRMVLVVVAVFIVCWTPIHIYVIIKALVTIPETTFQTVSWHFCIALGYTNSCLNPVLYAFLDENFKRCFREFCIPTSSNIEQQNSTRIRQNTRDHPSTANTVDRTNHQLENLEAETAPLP

[2] = target: D(2) dopamine receptor (Homo sapiens) (UniProt P14416); assay: Agonist activity at dopamine D2 receptor (unknown origin) at 1 uM; format: functional; outline: as §1
[3] = target: Mu-type opioid receptor (Homo sapiens) (UniProt P35372); assay: Agonist activity at mu-opioid receptor (unknown origin) at 1 uM; format: functional; outline: as §1
[4] = target: T1, Free fatty acid receptor 4 (Homo sapiens) (UniProt Q5NUL3); assay: Agonist activity at FFA4 receptor (unknown origin) at 1 uM; format: functional; outline: as §1
T1 sequence (whole entry): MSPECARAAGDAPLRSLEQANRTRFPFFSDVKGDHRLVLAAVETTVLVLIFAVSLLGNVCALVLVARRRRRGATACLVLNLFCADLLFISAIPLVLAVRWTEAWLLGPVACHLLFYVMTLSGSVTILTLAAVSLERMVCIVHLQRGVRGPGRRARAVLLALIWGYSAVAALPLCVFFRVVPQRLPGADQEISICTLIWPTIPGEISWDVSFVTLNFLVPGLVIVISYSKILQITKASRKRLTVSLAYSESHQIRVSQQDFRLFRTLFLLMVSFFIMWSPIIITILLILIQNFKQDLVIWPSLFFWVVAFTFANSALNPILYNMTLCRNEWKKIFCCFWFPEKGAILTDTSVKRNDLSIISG

[5] = target: Histamine H1 receptor (Homo sapiens) (UniProt P35367); assay: Agonist activity at histamine H1 receptor receptor (unknown origin) at 1 uM

Measured: Activity

COc1ccc(-c2c3oc(=O)c(C(=O)O)cc3cc3cc(C(=O)O)c(=O)oc23)cc1
inactive: all assays above

O=C(O)c1cc2c3ccccc3c3cc(C(=O)O)c(=O)oc3c2oc1=O
inactive: all assays above

O=C(O)c1cc2cc3cc(C(=O)O)c(=O)oc3c(Br)c2oc1=O
inactive: all assays above
